{
  "source": "patent US11173144B2",
  "about": "“Adrenergic receptor modulating compounds and methods of using the same” (The Board of Trustees of the Leland Stanford Junior …, priority 2016, dated 2021)",
  "experiment": "Pharmacokinetic study, 20 min post-dose collection (plasma and brain)",
  "set-up": "species or system Sprague-Dawley rats",
  "conditions": "Sprague-Dawley, rat, in vivo; for concentration at 20 min: 10 mg/kg",
  "method": "Two cohorts of Sprague-Dawley rats are used in two independent studies. All animals are fasted overnight before the experiment with free access to water. In study 1, a total of 18 rats are used for a 4 h time course pharmacokinetic (PK) study. […] On the day of the experiment, xamoterol is freshly prepared in saline. […] Four hours post-dose, rats are deeply anesthetized with isoflurane and blood samples are collected by cardiac puncture. In study 2, a total of 18 rats are used for a 20 min post-dose collection study. […] At 20 min post-dose, rats are deeply anesthetized with isoflurane and blood samples are collected by cardiac puncture. Brains are collected after perfusion with phosphate buffered saline. […] LC separation is carried out on a Phenomenex Synergi Polar-RP column (2.5 μm, 2 mm×50 mm) with a flow rate of 0.25 ml/min at room temperature. Mobile phase A consisted of 10 mM ammonium acetate and 0.1% formic acid in LCMS grade water. Mobile phase B consisted of 10 mM ammonium acetate and 0.1% formic acid in LCMS grade acetonitrile: water 90:10% (v/v). […] Five μl of the extracted samples is injected. The mass spectrometer is operated in the positive mode with multiple-reaction monitoring (MRM) with the transition m/z 334.1→210.1 and 334.1→100.2.",
  "note": "Values joined by “and” are separate entries in the source; they are usually repeats but may differ in a detail not shown here. Equal values may be shown once.",
  "data": [
    {"compound": "O=C(NCCNCC(O)COc1ccc(O)cc1)N1CCOCC1", "note": "(centres unmarked) [Xamoterol]", "values": [
      {"measurement": "plasma concentration following PO as percent of that achieved via IP", "setting": "20 min", "value": 0.2, "unit": "%"},
      {"measurement": "plasma concentration following PO as percent of that achieved via IV", "setting": "20 min", "value": 0.7, "unit": "%"},
      {"measurement": "concentration at 20 min", "setting": "ip", "value": "3110 ng/mL and 26.5 ng/g"},
      {"measurement": "concentration at 20 min", "setting": "iv", "value": "1120 ng/mL and 38.3 ng/g"},
      {"measurement": "concentration at 20 min", "setting": "po", "value": "8.1 ng/mL and 15.8 ng/g"}
    ]}
  ]
}
